This note sets out measurements from paper PMC5908310 (2018).

The target of assay [1] is T1, EGFR (Homo sapiens, UniProt P00533). Put plainly: flow.
The target in assay [2] is T1, EGFR. As to the kind of experiment: BLI.

B1: nimotuzumab (antibody, V domains shown)
VH: QVQLQQSGAEVKKPGSSVKVSCKASGYTFTNYYIYWVRQAPGQGLEWIGGINPTSGGSNFNEKFKTRVTITADESSTTAYMELSSLRSEDTAFYFCTRQGLWFDSDGRGFDFWGQGTTVTVSS
VL: DIQMTQSPSSLSASVGDRVTITCRSSQNIVHSNGNTYLDWYQQTPGKAPKLLIYKVSNRFSGVPSRFSGSGSGTDFTFTISSLQPEDIATYYCFQYSHVPWTFGQGTKLQIT
As for B1, the Kd in assay [1] came out at 13 nM; in assay [2] it was 23 nM.
